Biological target: Delta-type opioid receptor (Homo sapiens, UniProt P41143)
Assay: Displacement of [I125]deltorphin from delta-opioid receptor overexpressed in human HEK293 cells
Type: cell-based

Sequences of proteins named here, by UniProt entry; tags and fusion partners are left off.
UniProt P41143, whole entry: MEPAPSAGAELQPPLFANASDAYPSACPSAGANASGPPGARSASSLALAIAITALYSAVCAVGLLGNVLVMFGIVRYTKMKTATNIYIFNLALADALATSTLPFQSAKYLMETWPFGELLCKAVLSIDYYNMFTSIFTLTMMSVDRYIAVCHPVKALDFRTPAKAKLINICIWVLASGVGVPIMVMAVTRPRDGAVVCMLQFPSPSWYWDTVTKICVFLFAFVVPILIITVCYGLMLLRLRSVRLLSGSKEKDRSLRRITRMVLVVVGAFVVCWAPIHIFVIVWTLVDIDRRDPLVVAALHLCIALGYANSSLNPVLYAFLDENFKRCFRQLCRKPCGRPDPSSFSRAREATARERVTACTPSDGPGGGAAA

CCOC(=O)Nc1ccccc1[C@@H](c1ccc(C(=O)N(CC)CC)cc1)N1CCN(Cc2cscn2)CC1
IC50: 0.78 nM

— ChEMBL document CHEMBL1938393, “Multiparameter exploration of piperazine derivatives as δ-opioid receptor agonists for CNS indications” (Bioorg Med Chem Lett, 2012)
